Reference: publication PMC11211886 (Frontiers in Pharmacology, 2024)

Amino acid sequences for entries named in this document (tags omitted). A change or cut given only in a name is not applied to a line headed by its entry.
UniProt Q9UNQ0: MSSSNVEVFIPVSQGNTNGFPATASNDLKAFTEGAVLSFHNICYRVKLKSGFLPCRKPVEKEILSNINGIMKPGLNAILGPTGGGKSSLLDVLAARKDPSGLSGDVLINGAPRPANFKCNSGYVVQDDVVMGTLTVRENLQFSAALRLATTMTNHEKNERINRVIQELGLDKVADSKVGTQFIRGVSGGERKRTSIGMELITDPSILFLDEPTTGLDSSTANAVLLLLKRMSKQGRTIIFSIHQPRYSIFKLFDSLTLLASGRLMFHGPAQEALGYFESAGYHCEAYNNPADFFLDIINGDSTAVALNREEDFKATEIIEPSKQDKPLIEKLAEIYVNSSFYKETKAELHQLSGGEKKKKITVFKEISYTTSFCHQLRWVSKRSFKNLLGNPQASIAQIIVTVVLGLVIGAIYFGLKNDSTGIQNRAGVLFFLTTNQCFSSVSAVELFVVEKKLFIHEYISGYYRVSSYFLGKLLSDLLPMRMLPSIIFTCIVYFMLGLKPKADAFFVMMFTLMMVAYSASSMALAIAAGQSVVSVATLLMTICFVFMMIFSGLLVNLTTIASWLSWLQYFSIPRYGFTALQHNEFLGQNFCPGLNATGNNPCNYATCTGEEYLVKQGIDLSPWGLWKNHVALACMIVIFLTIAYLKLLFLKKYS

Molecular target: BCRP (Homo sapiens, UniProt Q9UNQ0)

## LY335979
1 µM
  Percentage of inhibition (BCRP): -11.8%
Caco-2
  Efflux ratio of E3S: 22.2
  Papp A-B of E3S: 3.96 ×10–^6 cm/s
  Papp B-A of E3S: 87.9 ×10–^6 cm/s
